Assay results from patent US6984394B2, “Plastically deformable implant” (Bausch & Lomb Incorporated, priority 1999, dated 2006).

Assay: Surface tension of surface-active agent
Format: physicochemical
Settings: in aqueous solution
Excerpt: According to the present invention, the term fluorine-containing gel is defined as a gel-like preparation which comprises a minimum of one fluorocarbon. In especially useful embodiments of the present invention, the fluorine-containing gel comprises essentially three components, i.e., a fluorocarbon, a fluorine-containing surface-active agent, and water. It is possible for different additives to be added to the fluorocarbon-containing and aqueous components. Certain compositions of surface-active agents, fluorocarbons, and water form gels which are able to completely recover their gel structure after they have been liquefied, for example, by exposure to mechanical pressure or heat. This property of the gels according to the present invention makes it possible for them to be used as a generic implant over a long period of time. If the implant material of such an implant that has been inserted into a bodily orifice were to liquefy, for example, as a result of short-term pressure, the gel structure, due to the reversibility described, would be able to recover when in a state of rest. […] The stability of the aphrons depends on the intensity of the interaction between water, surface-active agent, and perfluorocarbon, which in turn is determined by the surface properties and the ability of the individual phases to spread on each other's surface. […]

Perfluorooctanoic acid amidotrimethyl ammonium iodide [Example B98]
σO = surface tension: σO < 20 mNm
